Experimental findings from patent EP4837906A1, “NOVEL COMPOUND USED AS CBP/PA300 INHIBITOR, AND PHARMACEUTICAL COMPOSITION FOR PREVENTING OR TREATING CANCER, INFLAMMATORY DISORDERS, OR AUTOIMMUNE DISEASES COMPRISING SAME AS ACTIVE INGREDIENT” (dated 2026) are described below.

Protein sequences, listed by entry. Tags and fused reporters are not part of them. Residues count along the entry.
UniProt Q92793, 1085-1192 limits assumed: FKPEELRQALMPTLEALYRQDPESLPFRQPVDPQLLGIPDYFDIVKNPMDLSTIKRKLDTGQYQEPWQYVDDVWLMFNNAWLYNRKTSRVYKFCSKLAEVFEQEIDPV

One assay deals with BRD4 (BD1) protein (Homo sapiens, UniProt O60885). Briefly: BRD4 inhibitory activity, TR-FRET assay of BRD4 bromodomain with Ac-H4 peptide. Particulars: read-out: BRD4 (BD1) IC50, BRD4 (BD1) protein 7.5 nM, Ac-H4 peptide 15 nM, 2 hours at room temperature. How it is done: BRD4 inhibitory activity was measured using a time resolved fluorescence resonance energy transfer (TR-FRET) experiment to verify the activity of BRD4 bromodomain.
(§1) The assay was performed in a final volume of 14 µl, optimized based on a CREBBP time resolved fluorescence resonance energy transfer (TR-FRET) assay kit (BPS Bioscience, cat. 32613) to maximize an assay window, and performed in a final volume of 14 µl, while maximizing the assay window. A TR-FRET fluorescence acceptor and a Tb donor were diluted in an assay buffer containing 2-[4-(2-hydroxyethyl)piperazin-1-yl]ethanesulfonic acid (hereafter, referred to as an assay buffer, BPS Bioscience, cat. 33012), and 3 µl of each solution was transferred to all wells of a white 384-low-volume well plate (Corning, cat. 4513). 2 µl of 4X Ac-H4 peptide (final concentration 15 nM) was transferred to high control wells and test wells. Each compound was prepared at 10 concentration points by serially diluting 3-fold from the highest concentration in a dimethyl sulfoxide solvent. The compound at each concentration was then diluted in the assay buffer to prepare a diluted compound solution that was 4-fold more concentrated than the final concentration. 2 µl of each compound or dimethyl sulfoxide prepared in this way was distributed into an assay plate so that the final test concentration was a minimum of 0.5 µM to a maximum of 10 µM (final dimethyl sulfoxide concentration 1%). 6 µL of 1X assay buffer was added to low control wells and 2 µl was added to high control and test wells. Then, 2 µl of 4X BRD4 (BD1) protein (final concentration 7.5 nM, BPS bioscience, cat 31040) was added to initiate a PPI reaction. The plate was reacted at room temperature for 2 hours before measuring the signal. The TR-FRET signal was measured using an EnVision Multilabel plate reader (PerkinElmer; Mirror LNACE/DELFIA Dual/Bias). For data analysis, the values of each well were obtained using a TR-FRET ratio ((Signal 665 nm/Signal 615 nm) X20000. Data analysis was performed using the TR-FRET ratio ((Signal 665 nm/Signal 615 nm) X20000. Data were reported as percent inhibition compared to control wells based on the following equation: %Activity = ((FRETcompound - FRETLow av)/(FRETHigh av - FRETLow av)) X100. IC50 analysis was determined by standard 4 parameter curve fitting according to an algorithm using GraphPad Prism 7.0 (GraphPad Software Inc., La Jolla, CA, USA). All data are expressed as mean ± standard error of the mean (SEM).
(In general: TR-FRET usually uses a lanthanide donor and a delayed reading to cut background.)

For a further assay, the target named is CBP BRD protein (Homo sapiens, UniProt Q92793). Description: CBP inhibitory activity, TR-FRET assay of CBP bromodomain with Ac-H4 peptide. Particulars: read-out: CBP BRD IC50, CBP BRD protein 7.5 nM, Ac-H4 peptide 85 nM, 2 hours at room temperature. The method, then:
CBP inhibitory activity was measured using a time resolved fluorescence resonance energy transfer (TR-FRET) experiment to verify the activity of CBP bromodomain.
as §1, with “32619)” for “32613)”, “85” for “15”, “CBP BRD” for “BRD4 (BD1)”, “31128)” for “31040)”, “Dual/Bias).” for “Dual/Bias). For data analysis, the values of each well were obtained using a TR-FRET ratio ((Signal 665 nm/Signal 615 nm) X20000. Data analysis was performed using the TR-FRET ratio ((Signal 665 nm/Signal 615 nm) X20000. Data were reported as percent inhibition compared to control wells based on the following equation: %Activity = ((FRETcompound - FRETLow av)/(FRETHigh av - FRETLow av)) X100. IC50 analysis was determined by standard 4 parameter curve fitting according to an algorithm using GraphPad Prism 7.0 (GraphPad Software Inc., La Jolla, CA, USA). All data are expressed as mean ± standard error of the mean (SEM).”
For data analysis, the values of each well were obtained using a TR-FRET ratio ((Signal 665 nm/Signal 615 nm)X20000. Data analysis was performed using the TR-FRET ratio ((Signal 665 nm/Signal 615 nm)X20000. Data were reported as percent inhibition compared to control wells based on the following equation: %Activity = ((FRETcompound - FRETLow av)/(FRETHigh av - FRETLow av))X100. IC50 analysis was determined by standard 4 parameter curve fitting according to an algorithm using GraphPad Prism 7.0 (GraphPad Software Inc., La Jolla, CA, USA). All data are expressed as mean ± standard error of the mean (SEM).

In the case of `Cn1cncc1-c1nc2cc(-c3cnn(CC(F)F)c3)ccc2n1-c1ccc2c(c1)n(C)c(=O)n2C`, the IC50 (commonly the point on the concentration scale where inhibition reaches its midpoint) on BRD4 (BD1) protein is > 5 µM; at CBP BRD protein, 0.5 to 5 µM. On to `CNC(=O)c1cc(-c2ccc3c(c2)nc(-c2cncn2C)n3-c2ccc3c(c2)n(C)c(=O)n3C)ccc1F`, for which the IC50 on BRD4 (BD1) protein and at CBP BRD protein was 0.5 to 5 µM throughout. On to `Cn1cncc1-c1nc2cc(-c3ccc4c(c3)OCO4)ccc2n1-c1ccc2c(c1)n(C)c(=O)n2C`, for which the IC50 is > 5 µM on BRD4 (BD1) protein and < 0.5 µM at CBP BRD protein. For `Cn1cncc1-c1nc2cc(-c3cnc(N)nc3)ccc2n1-c1ccc2c(c1)n(C)c(=O)n2C`, the IC50 is > 5 µM at BRD4 (BD1) protein and < 0.5 µM at CBP BRD protein. In the same order, the values of `CNC(=O)c1ccc(-c2ccc3c(c2)nc(-c2cncn2C)n3-c2ccc3c(c2)n(C)c(=O)n3C)cn1` are > 5 µM and 0.5 to 5 µM. For the molecule `Cn1cncc1-c1nc2cc(-c3ccccc3F)ccc2n1-c1ccc2c(c1)n(C)c(=O)n2C`, the IC50 at BRD4 (BD1) protein is > 5 µM; at CBP BRD protein it was 0.5 to 5 µM. `Cn1cncc1-c1nc2cc(-c3ccc(NC(=O)OC(C)(C)C)cc3)ccc2n1-c1ccc2c(c1)n(C)c(=O)n2C`: the IC50 was > 5 µM at BRD4 (BD1) protein and 0.5 to 5 µM at CBP BRD protein. The matching figures for `Cn1cncc1-c1nc2cc(-c3ccc(F)cc3)ccc2n1-c1ccc2c(c1)n(C)c(=O)n2C`: > 5 µM and 0.5 to 5 µM.

Take `CNC(=O)c1ccc(-c2ccc3c(c2)nc(C(C)(C)C)n3-c2ccc3c(c2)n(C)c(=O)n3C)cc1F`: the IC50 is > 5 µM at BRD4 (BD1) protein and < 0.5 µM at CBP BRD protein.

Turning to `CNC(=O)c1ccc(-c2ccc3c(c2)nc(-c2cccc(C(F)(F)F)c2)n3-c2ccc3c(c2)n(C)c(=O)n3C)cc1F`, the IC50 is > 5 µM on BRD4 (BD1) protein and 0.5 to 5 µM on CBP BRD protein.

Consider `CNC(=O)c1ccc(-c2ccc3c(c2)nc(-c2cccc(OC)c2)n3-c2ccc3c(c2)n(C)c(=O)n3C)cc1F`, for which the IC50 at BRD4 (BD1) protein was > 5 µM; on CBP BRD protein it was 0.5 to 5 µM. The matching figures for `CNC(=O)c1ccc(-c2ccc3c(c2)nc(-c2c[nH]c4ncccc24)n3-c2ccc3c(c2)n(C)c(=O)n3C)cc1F`: 0.5 to 5 µM and < 0.5 µM. In the same order, the values of `CNC(=O)c1ccc(-c2ccc3c(c2)nc(-c2cncn2C)n3-c2ccc3c(c2)n(C)c(=O)n3C)cc1Cl` are 0.5 to 5 µM and < 0.5 µM.

Consider `CNC(=O)c1ccc(-c2ccc3c(c2)nc(-c2cccc(Br)c2C)n3-c2ccc3c(c2)n(C)c(=O)n3C)cc1F`, for which the values for the IC50 at BRD4 (BD1) protein and on CBP BRD protein were > 5 µM and < 0.5 µM, respectively. As for `CNC(=O)c1ccc(-c2ccc3c(c2)nc(-c2ccccc2C)n3-c2ccc3c(c2)n(C)c(=O)n3C)cc1F`, the IC50 at BRD4 (BD1) protein is > 5 µM; at CBP BRD protein, 0.5 to 5 µM. `Cn1cncc1-c1nc2cc(-c3ccncc3)ccc2n1-c1ccc2c(c1)n(C)c(=O)n2C`: the IC50 is > 5 µM on BRD4 (BD1) protein and < 0.5 µM at CBP BRD protein. On to `Cn1cncc1-c1nc2cc(-c3ccnc(N)c3)ccc2n1-c1ccc2c(c1)n(C)c(=O)n2C`, for which the IC50 at BRD4 (BD1) protein was 0.5 to 5 µM; at CBP BRD protein, < 0.5 µM. As for `CNC(=O)c1ccc(-c2ccc3c(c2)nc(CCN(C)C)n3-c2ccc3c(c2)n(C)c(=O)n3C)cc1F`, the IC50 on BRD4 (BD1) protein and on CBP BRD protein was > 5 µM throughout.

Regarding `CNC(=O)c1ccc(-c2ccc3c(c2)nc(-c2cccs2)n3-c2ccc3c(c2)n(C)c(=O)n3C)cc1F`, the IC50 at BRD4 (BD1) protein and at CBP BRD protein was > 5 µM in each case.

As for `Cn1cncc1-c1nc2cc(-c3ccc(C(=O)O)c(F)c3)ccc2n1-c1ccc2c(c1)n(C)c(=O)n2C`, the IC50 on BRD4 (BD1) protein was > 5 µM; at CBP BRD protein, < 0.5 µM. In the same order, the values of `CNC(=O)c1ccc(-c2ccc3c(c2)nc(-c2ccc(F)cc2)n3-c2ccc3c(c2)n(C)c(=O)n3C)cc1F` are > 5 µM and > 5 µM. The matching figures for `Cn1cncc1-c1nc2cc(C#N)ccc2n1-c1ccc2c(c1)n(C)c(=O)n2C`: > 5 µM and > 5 µM. For `CNc1ccc(-c2ccc3c(c2)nc(-c2cncn2C)n3-c2ccc3c(c2)n(C)c(=O)n3C)cc1`, the IC50 on BRD4 (BD1) protein was > 5 µM; at CBP BRD protein it was 0.5 to 5 µM. With `CNC(=O)c1ccc(-c2ccc3c(c2)nc(-c2cccc(F)c2C)n3-c2ccc3c(c2)n(C)c(=O)n3C)cc1F`, the IC50 at BRD4 (BD1) protein is > 5 µM; on CBP BRD protein, < 0.5 µM. As for `CNC(=O)c1ccc(-c2ccc3c(c2)nc(-c2cccnc2Cl)n3-c2ccc3c(c2)n(C)c(=O)n3C)cc1F`, the IC50 at BRD4 (BD1) protein is > 5 µM; at CBP BRD protein, 0.5 to 5 µM.

As to `Cn1cncc1-c1nc2cc(-c3ccc(CO)cc3)ccc2n1-c1ccc2c(c1)n(C)c(=O)n2C`, the IC50 at BRD4 (BD1) protein was > 5 µM; on CBP BRD protein, < 0.5 µM. For the molecule `CNC(=O)c1ccc(-c2ccc3c(c2)nc(-c2ccno2)n3-c2ccc3c(c2)n(C)c(=O)n3C)cc1F`, the IC50 at BRD4 (BD1) protein and at CBP BRD protein was > 5 µM each time. For `CNC(=O)c1ccc(-c2ccc3c(c2)nc(C(C)(C)OC)n3-c2ccc3c(c2)n(C)c(=O)n3C)cc1F`, the IC50 at BRD4 (BD1) protein is > 5 µM; on CBP BRD protein it was 0.5 to 5 µM.

As to `Cc1ccc2c(-c3nc4cc(Br)ccc4n3-c3ccc4c(c3)n(C)c(=O)n4C)c[nH]c2c1`, at CBP BRD protein, the IC50 is > 5 µM. As for `Cn1cncc1-c1nc2cc(-c3cnn(CC(C)(C)O)c3)ccc2n1-c1ccc2c(c1)n(C)c(=O)n2C`, the half-maximal inhibitory concentration (IC50) is > 5 µM at BRD4 (BD1) protein and 0.5 to 5 µM on CBP BRD protein.

`CNC(=O)Cn1cc(-c2ccc3c(c2)nc(-c2cncn2C)n3-c2ccc3c(c2)n(C)c(=O)n3C)nn1`: the figures for the IC50 on BRD4 (BD1) protein and on CBP BRD protein were > 5 µM and 0.5 to 5 µM, respectively. In the same order, the values of `CNC(=O)c1ccc(-c2ccc3c(c2)nc(C2CCOCC2)n3-c2ccc3c(c2)n(C)c(=O)n3C)cc1F` are > 5 µM and > 5 µM. In the same order, the values of `CNC(=O)c1ccc(-c2ccc3c(c2)nc(-c2ccccc2OC)n3-c2ccc3c(c2)n(C)c(=O)n3C)cc1F` are > 5 µM and < 0.5 µM.

As to `CNC(=O)c1ccc2c(c1)nc(C1CCCC(=O)N1)n2-c1ccc2c(c1)n(C)c(=O)n2C` (centres unmarked), on CBP BRD protein, the IC50 was > 5 µM.

Take `Cc1ccc2c(-c3nc4cc(C5CCN(C(=O)OC(C)(C)C)CC5)ccc4n3-c3ccc4c(c3)n(C)c(=O)n4C)c[nH]c2c1`: the IC50 at CBP BRD protein was > 5 µM. On the same count and under the same terms, under `CNS(=O)(=O)c1ccc2c(c1)nc(-c1cncn1-c1ccccc1)n2-c1ccc2c(c1)n(C)c(=O)n2C` stands > 5 µM; under `CNS(=O)(=O)c1ccc2c(c1)nc(-c1c[nH]c3cc(Br)ccc13)n2-c1ccc2c(c1)n(C)c(=O)n2C`, > 5 µM. Take `CNS(=O)(=O)c1ccc2c(c1)nc(-c1cncn1-c1ccc(F)c(F)c1)n2-c1ccc2c(c1)n(C)c(=O)n2C`: the IC50 on CBP BRD protein is > 5 µM. As for `CNS(=O)(=O)c1ccc2c(c1)nc(C1CCCC(=O)N1)n2-c1ccc2c(c1)n(C)c(=O)n2C` (centres unmarked), the IC50 at CBP BRD protein is > 5 µM.
